From patent EP1750770B1, “USE OF ORGANO-SILICON COMPOUNDS FOR CO[…] TISSUES” (Exsymol, priority 2004, dated 2005)

Details: in vivo

salicylate de monométhylsilanetriol [SalSi-3OH]
résorption du produit: complète une heure après l'injection
